From patent EP0559893A1, “XANTHINE DERIVATIVE” (priority 1990, dated 1992)

Sequences of proteins named here, by UniProt entry; tags and fusion partners are left off.
UniProt P47745, whole entry: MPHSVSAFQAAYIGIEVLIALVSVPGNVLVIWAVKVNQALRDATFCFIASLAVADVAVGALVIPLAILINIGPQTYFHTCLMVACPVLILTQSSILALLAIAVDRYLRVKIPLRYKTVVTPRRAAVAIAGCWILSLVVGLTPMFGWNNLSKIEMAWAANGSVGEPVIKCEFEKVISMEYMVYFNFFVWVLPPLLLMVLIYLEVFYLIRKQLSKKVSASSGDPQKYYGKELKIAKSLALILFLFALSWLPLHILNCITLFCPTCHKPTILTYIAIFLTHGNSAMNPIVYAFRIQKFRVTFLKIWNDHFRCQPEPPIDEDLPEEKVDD

Molecular target: Adenosine A₁ receptor (Cavia porcellus, UniProt P47745)
Test: Adenosine A1 receptor binding test (3H-CHA binding)

CCCn1c(=O)c2nc(/C=C/c3cc(OC)c(OC)c(OC)c3)[nH]c2n(CCC)c1=O [Compound 13, 1,3-Dipropyl-8-[(E)-3,4,5-trimethoxystyryl]xanthine]
Ki: 1700 nM
inhibition at 100 µM (read-out: A1 Receptor Inhibition (%) 10^-4 M): 57%
inhibition at 10 µM (read-out: A1 Receptor Inhibition (%) 10^-5 M): 50%
